One test has as its target T1, σ1 receptors (Rattus norvegicus, UniProt Q9R0C9).
T1 construct: tested in rat brain and in guinea pig membranes, respectively; from tissue; host or cells: rat brain
In words: σ1 binding of Table 5 compounds. The procedure: Compounds were tested for VAChT binding using highly purified Torpedo synaptic vesicles. The σ1 and σ2 binding affinities were tested in rat brain and in guinea pig membranes, respectively. Structures and Equilibrium binding constants (Ki) are reported in Table 5 and Table 6, respectively. As in previous studies, we define ligand selectivity in terms of a selectivity index which is calculated as Ki (σ1 or σ2)/Ki (VAChT).
Consequently, we also screened the target compounds for sigma binding to identify selective VAChT ligands from this new structural class of agents.

Chains of the proteins cited; added tags and fusions are not shown.
UniProt Q9R0C9, whole entry: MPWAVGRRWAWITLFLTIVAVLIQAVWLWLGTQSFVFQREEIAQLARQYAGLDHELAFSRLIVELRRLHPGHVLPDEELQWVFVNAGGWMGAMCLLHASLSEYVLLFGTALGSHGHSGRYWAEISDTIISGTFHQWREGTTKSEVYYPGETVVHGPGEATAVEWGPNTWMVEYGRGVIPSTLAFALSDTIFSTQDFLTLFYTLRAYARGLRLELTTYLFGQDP
UniProt Q60492, whole entry: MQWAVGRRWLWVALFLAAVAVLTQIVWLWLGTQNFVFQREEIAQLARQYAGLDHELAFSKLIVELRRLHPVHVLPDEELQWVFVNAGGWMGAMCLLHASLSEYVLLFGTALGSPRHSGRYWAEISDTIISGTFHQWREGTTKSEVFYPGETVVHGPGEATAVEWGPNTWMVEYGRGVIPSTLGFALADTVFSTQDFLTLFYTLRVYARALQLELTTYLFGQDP

The target of a further test is T2, σ1 receptor (Cavia porcellus, UniProt Q60492).
T2 construct: using guinea pig brain membrane homogenates; from tissue; host or cells: guinea pig brain membrane homogenates
The test is described as follows: σ1 receptor binding assay, (+)-[3H]pentazocine, guinea pig brain membranes. The following applies: Table 4, Ki values of VAChT specific compounds; tissue not given; read-out: Sigma-1 σ1.

In US8658131B2, “Compounds comprising 4-benzoylpiperidine as a sigma-1-selective ligand” (Washington University, priority 2010, dated 2014) one finds Ki data, which are given here for 1 compound.

Structures can show the parent of a compound that is named as a salt.

For the compound `Cc1ccc(C(=O)C2CCN(C3Cc4c(N)cccc4CC3O)CC2)cn1` (centres unmarked) [OS-5-70, (1-(8-amino-3-hydroxy-1,2,3,4-tetrahydronaphthalen-2-yl)piperidin-4-yl)(6-methylpyridin-3-yl)methanone oxalate], the Ki at σ1 receptors and at σ1 receptor was 11.4 ± 2.04 µM throughout.
